The text below walks through data of PubChem BioAssay AID504707 (The Scripps Research Institute Molecular Screening Center, 2011).

The chains behind the UniProt entries cited, without tags or fusion partners.
UniProt P00514, whole entry, looked up: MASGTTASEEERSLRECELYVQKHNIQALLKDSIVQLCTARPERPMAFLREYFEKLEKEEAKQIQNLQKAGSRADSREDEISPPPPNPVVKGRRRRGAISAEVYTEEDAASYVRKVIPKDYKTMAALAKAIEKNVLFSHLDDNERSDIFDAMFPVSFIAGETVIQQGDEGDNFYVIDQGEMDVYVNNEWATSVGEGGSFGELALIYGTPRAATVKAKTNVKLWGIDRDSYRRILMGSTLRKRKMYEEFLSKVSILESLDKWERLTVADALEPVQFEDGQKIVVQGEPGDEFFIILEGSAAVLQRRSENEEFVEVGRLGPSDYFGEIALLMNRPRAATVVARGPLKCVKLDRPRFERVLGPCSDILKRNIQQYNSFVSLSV

The list shows a part of the results, in another mix than the full data. The source made the active and inactive calls.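 How the source made its calls: active means percent activation above the mean of all tested compounds plus 3 SD (cut at about 19% in these data); inactive means the rest.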

For this test, the target named is cAMP-dependent protein kinase type I-alpha regulatory subunit (Bos taurus) + cAMP-dependent protein kinase catalytic subunit beta (Mus musculus) (UniProt P00514+P68181). The test can be described thus: compounds dissociating PKAc from R1A subunit – biochemical, fluorescence polarization, Cy5-IP20, bovine R1A, mouse PKAc, primary screen (AID 504707).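 Further: higher means more PKAc released from R1A so a rise in polarization.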 The following applies: PKA-R1A dissociation, at 11.4 µM, hits give high values, scaled: DMSO 0%, 113 µM cGMP 100%.
For the compound `CCN(/C(=N/P(=O)(N1CCOCC1)N1CCOCC1)N1CCOCC1)c1ccc(OC)cc1`, the activation was inactive: 1.16%.

For the compound `C[N+]1=C2C=CC=CC=C2SC12C([N+](=O)[O-])=CC([N+](=O)[O-])=C[C-]2[N+](=O)[O-]` (centres undefined), the activation was inactive: 3.22%.

`Nc1ccc([As](=O)(O)c2ccc(N)cc2)cc1`: the activation is inactive: -3.42%.

For `CC1CCN(C(=O)Oc2c(Cl)cc(Cl)c3cccnc23)CC1`, the activation is inactive: -1.62%.

For the compound `c1cc(-c2nn[nH]n2)ccc1-c1nn[nH]n1`, the activation is inactive: -1.76%.

Turning to `CN(C)C(=O)OCCc1n(C)cc[n+]1C`, the activation was inactive: 1.63%.

In the case of `CC(C)c1nc(Nc2ccccc2)n(P(=O)(N(C)C)N(C)C)n1`, the activation is inactive: -1.42%.

As to `CC(C)=N/N=C(\N)N[N+](=O)[O-]`, the activation was inactive: -3.01%.

For the compound `COc1ccc(C2=NCC(CBr)S2)cc1` (centres undefined), the activation was inactive: -1.44%.

Take `O=[N+]([O-])c1cc([N+](=O)[O-])c(CCNc2ccccc2)c([N+](=O)[O-])c1`: the activation is inactive: 4.69%.

Turning to `CCc1nc2c(n1)c1c(non1O)c1c2no[n+]1[O-]`, the activation was inactive: -2.97%.

In the case of `Cc1ccc(NP(=O)(Oc2ccccc2)Oc2ccccc2)nc1`, the activation was inactive: -0.28%.

For the compound `CC(=O)N1C2C3N(C(C)=O)C1C1N(C(C)=O)C(C(N1C(C)=O)N3C(C)=O)N2C(C)=O`, the activation was inactive: -8.69%.

On to `O=[N+]([O-])c1cccc2n[nH]nc12`, for which the activation is inactive: 4.78%.

Regarding `O=[N+]([O-])c1ncn(CCn2ncnc2[N+](=O)[O-])n1`, the activation is inactive: -1.25%.

For `CC(C)(C)C(=O)NC(Sc1ccncn1)C(Cl)(Cl)Cl` (centres undefined), the activation is inactive: -2.24%.

On to `O=C(O)CNc1ccc([As](=O)(O)O)cc1`, for which the activation is inactive: 3.2%.

For `COC(=O)C1(C)COP(=O)(Nc2ccccc2)OC1` (centres undefined), the activation is inactive: -7.61%.

Take `O=[N+]([O-])c1cccc(NC2=NCC(CBr)S2)c1` (centres undefined): the activation is inactive: -4.14%.

As to `O=P1(N(CCCl)CCCl)OCCCS1` (centres undefined), the activation is inactive: -4.94%.

With `O=C(Nc1cc([As](=O)(O)O)ccc1O)c1ccccc1`, the activation was inactive: -3.44%.

For the compound `Nc1cccc2ccc([As](=O)(O)O)cc12`, the activation was inactive: -3.61%.

With `CCN(N=Nc1nonc1N)c1nonc1N`, the activation was inactive: 3.34%.

For `O=P(Nc1nc2ccc(Cl)cc2s1)(c1ccccc1)c1ccccc1`, the activation is inactive: -9.29%.

For the compound `CN(C)P(=O)(N(C)C)n1c(Nc2ccccc2)nnc1-c1ccccc1`, the activation is inactive: -4.83%.

For the compound `CCCC1OP(N)(=O)OCC1CC` (centres undefined), the activation was inactive: 8.14%.

For the compound `CC(=O)Nc1ccc([As](=O)(O)O)cc1`, the activation is inactive: -9.94%.

Regarding `O=C(O)c1ccccc1[As](=O)(O)O`, the activation was inactive: -12.3%.

On to `CN(C(=O)Cc1ccc(Cl)c(Cl)c1)[C@H]1CCCC[C@@H]1N1CCCC1`, for which the activation is inactive: -2.51%.

In the case of `Cc1ccc(NP(=O)(Oc2ccccc2F)Oc2ccccc2F)nc1`, the activation was inactive: -8.22%.

In the case of `Cc1cc(SC(NC(=O)c2ccc(F)cc2)C(Cl)(Cl)Cl)ncn1` (centres undefined), the activation was inactive: -3.97%.

On to `CCOP(=O)(Nc1ccccc1)OCC`, for which the activation was inactive: -0.86%.

As for `O=C(NC(Sc1ccncn1)C(Cl)(Cl)Cl)c1ccccc1` (centres undefined), the activation is inactive: -9.55%.

In the case of `Oc1ccccc1CNc1ccccn1`, the activation was inactive: 5.06%.

`Nc1cc(N)c2nonc2c1[N+](=O)[O-]`: the activation is inactive: -1.28%.

Regarding `CC(C)CC(=O)NC(Sc1ccc(Cl)cc1)C(Cl)(Cl)Cl` (centres undefined), the activation is inactive: -10.9%.

On to `Cc1ccc(N/C(=N/P(=O)(N2CCOCC2)N2CCOCC2)N2CCOCC2)cc1`, for which the activation was inactive: -16.6%.

Consider `CN(C(=O)Cc1ccc(Cl)c(Cl)c1)[C@H]1CCCC[C@H]1N1CCCC1`, for which the activation is inactive: -5.87%.

As for `NC(=O)c1cc([N+](=O)[O-])cc([N+](=O)[O-])c1N`, the activation was inactive: 3.23%.

Regarding `CN1CCCC(OC(=O)C(c2ccccc2)c2ccccc2)C1` (centres undefined), the activation is inactive: -1.96%.

As to `Clc1ccc(Cl)c(NC2=NCC(CBr)S2)c1` (centres undefined), the activation is inactive: -8.24%.

Regarding `COc1ccccc1OP(=O)(Nc1ccc(C)cn1)Oc1ccccc1OC`, the activation is inactive: -3.21%.

As to `C[C@H]1OP(=O)(Oc2ccccc2)C[C@@H]2O[C@@H]21` (some centres undefined), the activation is inactive: -11.9%.

For the compound `C[C@@H]1C=CCP(=O)(Oc2ccccc2)O1` (some centres undefined), the activation was inactive: -0.72%.

Consider `Cc1ccccc1CN(C)C(=O)COC(=O)C(O)(c1ccccc1)c1ccccc1`, for which the activation is inactive: -2.65%.

For the compound `COC(=O)C1(C)COP(=O)(NCc2ccccc2)OC1` (centres undefined), the activation was inactive: -4.98%.

With `CC(=O)c1ccc(N2CC2c2ccncc2)cc1` (centres undefined), the activation is inactive: -5.22%.

With `N#C/C(=C\c1ccc(N(CCBr)CCBr)cc1)C(N)=O`, the activation is inactive: 5.95%.

Turning to `CC(=O)Nc1ccc(Oc2c([N+](=O)[O-])cc([N+](=O)[O-])cc2[N+](=O)[O-])cc1`, the activation was inactive: 3.14%.

Consider `CC(=O)Nc1ccc([As](=O)(O)O)c(O)c1`, for which the activation was inactive: -9.26%.

`CCOc1ccc(C2=NCC(CBr)S2)cc1` (centres undefined): the activation was inactive: 0.78%.

As to `O=P1(Nc2nc3ccc(Cl)cc3s2)COc2ccccc2O1` (centres undefined), the activation is inactive: 0.95%.

In the case of `CC(C)(C)C(=O)NC(Sc1ccccc1)C(Cl)(Cl)Cl` (centres undefined), the activation is inactive: -11.7%.

As to `CCc1cc(O)c([N+](=O)[O-])c(C)c1[N+](=O)[O-]`, the activation was inactive: 8.44%.

`CCC(=O)N1C2C3N(C(=O)CC)C1C1N(C(=O)CC)C(C(N1C(=O)CC)N3C(=O)CC)N2C(=O)CC`: the activation was inactive: 6.65%.

As for `O=C(OC1CN2CCC1CC2)c1ccccc1` (centres undefined), the activation was inactive: 3.91%.

As to `CC(=O)NC(SC(=S)N(CC(C)C)CC(C)C)C(Cl)(Cl)Cl` (centres undefined), the activation was inactive: -0.76%.

As for `Cc1ccc(OP(=O)(Nc2ccccn2)Oc2ccc(C)cc2)cc1`, the activation was inactive: -8.68%.

For `COC(=O)c1cc2c(s1)N=C(c1ccccc1)N(C)P2(=O)N1CCOCC1` (centres undefined), the activation was inactive: 10%.

For the compound `O=c1c2cc([N+](=O)[O-])ccc2[nH]c2c([N+](=O)[O-])cc([N+](=O)[O-])cc12`, the activation is inactive: -8.83%.

As for `CN(C)C(=O)Oc1noc2ccccc12`, the activation was inactive: -4.44%.

With `CC(NC(=O)COC(=O)C(O)(c1ccccc1)c1ccccc1)c1ccccc1` (centres undefined), the activation is inactive: 8.36%.

`Cc1ccccc1OP(=O)(Nc1ccccn1)Oc1ccccc1C`: the activation is inactive: -0.92%.

Take `O=C(NC1CCS(=O)(=O)C1)NP(=S)(Oc1ccccc1)Oc1ccccc1` (centres undefined): the activation is inactive: -16.2%.
